1 substance from article doi:10.1101/2025.01.21.633066 can be followed below.

Sequences of proteins named here, by UniProt entry; tags and fusion partners are left off. Residues count along the entry.
UniProt P48061, 22-89: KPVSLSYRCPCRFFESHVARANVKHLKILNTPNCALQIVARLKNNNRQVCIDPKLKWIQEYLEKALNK

The target of the assay is solCXCR7. The assay is described as follows: BLI. Background: In BLI a coated tip is dipped into the sample, and binding shifts an interference pattern.

What is called Kd is the free concentration of one partner at which half of the binding sites on the other are occupied at equilibrium, for simple one-to-one binding.

Consider “SDF1α (from UniProt P48061-2 22-89) (ligand)”, for which the dissociation constant (Kd) is 8.1 nM.
